A549 tox: A549 cytotoxicity, counter-screen for Nrf2 inhibitors. A549 ARE-Fluc cells, CellTiter-Fluor viability, 18-24 h. Potency, µM (titrated, usually from 46 µM), inactives show top-dose activity change, negative = cytotoxicity, actives largely listed as inhibitors. 390,000 tested, 0.16% active; further: potency means the concentration at half of the fitted maximal effect; on the % scale 0 is the no-effect control and ±100 the full control effect
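A549 ARE_Fluc cells in 5% FBS OPTI-MEM were exposed to compounds in concentration-response for 18-24 h at 37 deg C. Viability was read by CellTiter-Fluor fluorescence (Ex 405/Em 525) after 30 min, before the luciferase read.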
TCR act: T cell receptor activation; primary human leukocytes, anti-CD3, IL-2 HTRF, 48 h; Potency, µM (series often up to 9.22 µM), for the others: top-dose activation of IL-2 secretion, most hits filed as activators; 330,000 tested, under 10 active; AID 504894; further: % of control where 0% means no effect
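Primary human leukocytes receive a-CD3 beads and test compound and are incubated 48 hr. Secreted IL-2 is then assayed by HTRF, measuring 665nm acceptor emission after 320nm excitation of the europium donor.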
miR-21 reporter: miR-21 reporter, rising signal. 340,000 tested, under 10 active. Potency, µM (highest dose often 38.3 µM), for the others: at the highest dose reporter change, positive = more light. HeLa miR-21 FLuc reporter, luciferase, 48 h. AID 2288; active = well fitted rising curve with a large enough effect; inconclusive = small, poorly fitted or top-dose-only effect; inactive = no such curve, though single readings can be large or run the other way;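 further: % of control where 0% means no effect; miR-21 action dims this reporter so a rising signal means less miR-21 action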
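HeLa cells endogenously expressing miR-21, stably carrying CMV-driven firefly luciferase with a downstream miR-21 binding site, 2000 cells/well. Titrations up to approximately 40 uM, 48 hours; luciferase luminescence read.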
ClpP mod: qHTS Assay for Activators of ClpP; Potency, µM (doses to about 57.5 µM), inactives show at the highest dose activity change, negative = active; 340,000 tested, 1.9% active; ATP-dependent Clp protease proteolytic subunit (Bacillus subtilis (strain 168)), P80244; purified B. subtilis ClpP, FRET peptide cleavage, 20 min; active means well fitted falling curve with a large enough effect; inconclusive means small, poorly fitted or top-dose-only effect; inactive means no such curve, though single readings can be large or run the other way; further: potency means the concentration at half of the fitted maximal effect; the source files actives as falling curves though it sought activators and does not explain the sign; nearly all actives have a fitted effect of over 65% in size
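ClpP 10 microg/mL final, pH 8 Tris/KCl buffer with BSA, glycerol, Tween-20; compound pinned in; FRET-FV substrate; RT 20 min; Ex320/Em430; ΔFRET vs ADEP 5.8 microM, DMSO, no enzyme.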
Nrf2 ARE act: activators of Nrf2 (ARE) signaling | AREc32 ARE-luciferase reporter (MCF7-derived line), luminescence, 24 h | Potency, µM (top dose mostly 46.1 µM), for inactives: top-dose activation, hits mostly activators | 410,000 tested, 0.31% active | AID 624171; further: potency means the concentration at half of the fitted maximal effect; % of control where 0% means no effect; nearly all actives have a fitted effect of over 65% in size
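AREc32_Fluc, 1000 cells/well, OPTI-MEM + 5% FBS, o/n 37 deg C 5% CO2; 23 nL cpd by pin tool, 24 hr; Steady-Glo 30 min RT, luminescence.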
Nrf2 inh: blocks Nrf2 signaling; A549 ARE-Fluc reporter, luciferase luminescence, 18-24 h; Potency, µM (series often up to 46 µM), for the others: top-dose activity change, negative = inhibition, actives largely listed as inhibitors; 360,000 tested, 2.1% active; AID 504444; further: potency means the concentration at half of the fitted maximal effect; on the % scale 0 is the no-effect control and ±100 the full control effect; nearly all actives have a fitted effect of over 60% in size
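Nrf2 activity is the BugLite luminescence, read 15 min after reagent at room temperature, following CellTiter-Fluor cytotoxicity readout (30 min, 37C). Compound titrations were applied for 18-24 h to 5000 A549 ARE_Fluc cells/well in 5% FBS OPTI-MEM.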
The depositor's hits bear a star; ? = inconclusive; nt = no result given; [ ] = another dose, or the depositor's remark. Compounds with a hit are over-represented: about 3.7% of the library has one in this group of screens. Unless noted, the call rests on the fitted dose curve; in most records, active means well fitted curve in the direction sought with a large enough effect; inconclusive means small, poorly fitted or top-dose-only effect, or another doubt; inactive means no such curve, though single readings can be large; an effect the other way counts as inactive or inconclusive.

SMILES	A549 tox	TCR act	miR-21 reporter	ClpP mod	Nrf2 ARE act	Nrf2 inh
CC(C)Oc1cccc(C(=O)Nc2ccc3oc(-c4cccc(Cl)c4)nc3c2)c1	-2%	nt	-6%	?	1%	?
CN1c2ccsc2/C(=N/Nc2ccccc2)CS1(=O)=O	-5%	-1%	-35%	nt	7.1µM*	?
CN1c2ccsc2/C(=N/NC(=O)c2c(F)cccc2F)CS1(=O)=O	3%	2%	-2%	1%	0%	-6%
CC1=C(C(=O)OCc2ccc3c(c2)OCO3)C(c2ccccc2OCc2ccccc2)NC(=O)N1 (configuration not stated)	-21%	-3%	24%	-2%	0%	13µM*
CC1=C(C(=O)OCc2ccc3c(c2)OCO3)C(c2ccc(O)c([N+](=O)[O-])c2)NC(=O)N1 (configuration not stated)	-9%	-3%	25%	nt	0%	?
CC1=C(C(=O)OCc2ccc3c(c2)OCO3)C(c2ccccc2)NC(=O)N1 (configuration not stated)	-2%	0%	?	0%	0%	8.2µM*
CCCOc1ccccc1C1NC(=O)NC(C)=C1C(=O)OCc1ccccc1 (configuration not stated)	?	0%[46.1 µM]	0%	-5%	0%	10µM*
CC(C)NC(=O)N1Cc2cc(C(=O)NC3CCCC3)nc(-c3cccc(-c4cccnc4)c3)c2[C@@H]1CCO	nt	nt	nt	1%	-1%	nt
OC(c1ccccc1)(c1nc(-c2cccc3cccnc23)cs1)C(F)(F)F (configuration not stated)	nt	nt	nt	?	0%	nt
CCCCn1nc(C(=O)Nc2c(C)n(C)n(-c3ccccc3)c2=O)c2ccccc2c1=O	-7%	-6%	nt	0%	-1%	?
CC(C)(C)C(=O)Nc1ccc2nc(SCC(=O)N3CCCC3)sc2c1	-5%	nt	-7%	-5%	0%	13%
Cc1nn(C)c(N)c1[N+](=O)[O-]	-4%	9%	-1%	0%	0%	0%
Cc1nn(C)c(Sc2ccccc2N)c1[N+](=O)[O-]	-1%	-3%	-24%	0%	14µM*	8%
COc1cccc(C2c3c(ncn(-c4ccccc4C)c3=N)Oc3ccc4ccccc4c32)c1 (configuration not stated)	-10%	nt	nt	nt	nt	-6%
CC(=O)O/N=C/c1c(N2CCOCC2)n(C)c2ccccc12	nt	-1%	23%	-1%	0%	6.5µM*
Cc1ccc(C(=O)O/N=C/c2c(N3CCOCC3)n(C)c3ccccc23)cc1	-1%	10%	22%	?	-1%	?
Cn1c(N2CCOCC2)c(/C=N/OC(=O)c2ccc(F)cc2)c2ccccc21	-5%	2%	?	-13%	0%	0.65µM*
CCOC(=O)c1cnc(SCC(=O)Nc2sc(C)c(C)c2C#N)nc1N	?	nt	-2%	-2%	2%	9.2µM*
CCc1nnc(SCC(=O)Nc2ccc(F)cc2F)c2cc3sc(C)cc3n12	5%	nt	-1%	1%	1%	15%
CC(=O)NCCc1nc2cc(NC(=O)c3cccc([N+](=O)[O-])c3)ccc2n1C	1%	3%	-37%	1%	0%	15%

Single records, as listed above. Order of screens: A549 tox	TCR act	miR-21 reporter	ClpP mod	Nrf2 ARE act	Nrf2 inh
Cc1nn(C)c(N)c1[N+](=O)[O-] as listed: -4%	9%	-1%	0%	0%	0%
CN1c2ccsc2/C(=N/Nc2ccccc2)CS1(=O)=O as listed: -5%	-1%	-35%	nt	7.1µM*	?
CC(=O)NCCc1nc2cc(NC(=O)c3cccc([N+](=O)[O-])c3)ccc2n1C as listed: 1%	3%	-37%	1%	0%	15%

More compounds.
SMILES	A549 tox	TCR act	miR-21 reporter	ClpP mod	Nrf2 ARE act	Nrf2 inh
CCc1nnc(NC(=O)c2ccncc2)s1	-7%	-2%	-15%	0%	0%	10%
CCc1nnc(NC(=O)c2cccc(C(=O)Nc3nnc(CC)s3)n2)s1	?	5%[46.1 µM]	-1%	2%	4%	0.26µM*
CCN(CC)S(=O)(=O)c1ccc(Cl)c(C(=O)NC)c1	-3%	2%	-4%	-3%	2%	11%
CCc1nnc(NC(=O)c2cc(S(=O)(=O)N(CC)CC)ccc2Cl)s1	-17%	-16%	0%	-2%	3%	16µM*
Cc1cc(C)c(C#N)c(SCC(=O)c2ccccc2)n1	8%	12%	-17%	0%	2.8µM*	21%
C[C@H](NC(=O)c1ccco1)C(=O)NCc1cccs1	-1%	-1%	nt	1%	-1%	2%
CCc1ccc(CN2CCC(n3nccc3NC(=O)C3CCCC3)CC2)cc1	-6%	2%	6%	28µM*	2%	-3%
COc1ccc(CCNC(=O)CCc2cn(Cc3ccc(C)cc3)c3ccccc23)cc1OC	-1%	nt	13%	-6%	4%	-14%
Cc1nc(SCC(=O)Nc2ccc(F)cc2)c(C#N)c(C)c1CC(=O)c1ccc(Br)cc1	12µM*	9%	-3%	0%	0%	13µM*
Cc1ccc(NC(=O)Cn2c(=O)n(Cc3nc(C)no3)c(=O)c3cc4c(cc32)OCO4)c(C)c1	6%	nt	-1%	22µM*	-1%	24%
O=C(Cn1c(=O)n(-c2ccccc2)c(=O)c2ccc(C(=O)NCc3ccc4c(c3)OCO4)cc21)Nc1ccc(Br)cc1	-3%	nt	-9%	-6%	0%	-8%
Cc1ccc(NC(=O)Cn2c(=O)n(-c3ccccc3)c(=O)c3ccc(C(=O)NCc4ccc5c(c4)OCO5)cc32)c(C)c1	-10%	nt	-7%	-22%	0%	7.3µM*
CC(C)c1ccc(NC(=O)Cn2c(=O)n(Cc3nc(-c4ccccc4)no3)c(=O)c3cc4c(cc32)OCO4)cc1	-2%	nt	-2%	?	-1%	?
Cc1noc(Cn2c(=O)c3cc4c(cc3n(CC(=O)Nc3ccc(C(C)C)cc3)c2=O)OCO4)n1	1%	nt	-3%	35µM*	0%	-11%
COc1ccc(CNC(=O)CCS(=O)(=O)c2cc3c4c(c2)CCN4C(=O)CC3)cc1OC	0%	nt	1%	-2%	-1%	-9%
COc1ccc(Cn2c(CNS(=O)(=O)c3ccc4c(c3)CCCC4)nc3cccnc32)cc1	-2%	nt	24%	-1%	3%	nt
COc1cc(OCc2ccccc2)c(C(=O)/C=C/c2ccc3c(c2)OCO3)c(OC)c1OC	0%	-4%	nt	nt	?	21µM*
O=C(NCCc1ccccc1)C1=CCN(S(=O)(=O)c2ccccc2)CC1	1%	-9%	-23%	-4%	3%	8%
Cc1ccc(C)c(S(=O)(=O)c2c(N)n(/N=C/c3ccco3)c3nc4ccccc4nc23)c1	-8%	-3%	1%	7.9µM*	0%	-24%
Cc1cccc(S(=O)(=O)c2c(N)n(/N=C/c3ccccc3)c3nc4ccccc4nc23)c1	-3%	6%	-2%	?	1%	?
Nc1c(S(=O)(=O)c2ccccc2)c2nc3ccccc3nc2n1/N=C/c1cccc(O)c1	-8%	-8%	-1%	10µM*	-1%	nt

Fetched one by one from above:
SMILES	A549 tox	TCR act	miR-21 reporter	ClpP mod	Nrf2 ARE act	Nrf2 inh
O=C(Cn1c(=O)n(-c2ccccc2)c(=O)c2ccc(C(=O)NCc3ccc4c(c3)OCO4)cc21)Nc1ccc(Br)cc1	-3%	nt	-9%	-6%	0%	-8%
Cc1ccc(C)c(S(=O)(=O)c2c(N)n(/N=C/c3ccco3)c3nc4ccccc4nc23)c1	-8%	-3%	1%	7.9µM*	0%	-24%
